From US8263596B2, “Kinase inhibitors and method of treating cancer” (University Health Network, priority 2010, dated 2012) come the findings set out here.

Chains of the proteins cited; added tags and fusions are not shown. Residues count along the entry.
UniProt P36888, 27-993: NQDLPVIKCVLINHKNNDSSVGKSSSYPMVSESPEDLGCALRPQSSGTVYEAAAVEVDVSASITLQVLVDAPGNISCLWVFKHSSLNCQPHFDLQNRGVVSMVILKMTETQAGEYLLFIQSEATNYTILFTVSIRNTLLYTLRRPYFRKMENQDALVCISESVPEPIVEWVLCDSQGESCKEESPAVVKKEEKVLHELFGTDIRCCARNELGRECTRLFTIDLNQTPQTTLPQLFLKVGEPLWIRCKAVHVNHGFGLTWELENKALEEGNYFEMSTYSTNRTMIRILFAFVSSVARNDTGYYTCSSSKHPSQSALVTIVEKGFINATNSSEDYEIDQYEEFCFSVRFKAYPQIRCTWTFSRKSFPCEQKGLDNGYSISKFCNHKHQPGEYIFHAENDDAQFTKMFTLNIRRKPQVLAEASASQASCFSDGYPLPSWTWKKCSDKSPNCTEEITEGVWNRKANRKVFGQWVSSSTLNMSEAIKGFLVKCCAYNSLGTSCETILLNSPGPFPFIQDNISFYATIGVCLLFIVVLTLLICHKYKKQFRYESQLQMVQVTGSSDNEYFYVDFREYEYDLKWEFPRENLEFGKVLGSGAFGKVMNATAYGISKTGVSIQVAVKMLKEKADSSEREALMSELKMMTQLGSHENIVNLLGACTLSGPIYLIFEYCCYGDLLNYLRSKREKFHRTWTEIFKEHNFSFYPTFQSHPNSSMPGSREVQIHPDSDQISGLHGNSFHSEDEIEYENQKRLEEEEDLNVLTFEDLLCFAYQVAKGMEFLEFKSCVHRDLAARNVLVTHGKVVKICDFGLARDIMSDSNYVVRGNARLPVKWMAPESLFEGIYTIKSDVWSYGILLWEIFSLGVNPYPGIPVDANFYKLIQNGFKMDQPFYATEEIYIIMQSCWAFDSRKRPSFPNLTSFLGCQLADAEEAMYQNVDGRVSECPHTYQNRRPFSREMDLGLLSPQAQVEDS

In the assay the target is T1, FLT3 (Homo sapiens, UniProt P36888).
T1 construct: purchased Invitrogen PV3182
The assay is described as follows: FLT3 inhibition assay (Z-Lyte). Format: biochemical. The conditions noted are these: read-out: IC50 Ranges Flt3.

As to `COc1ccc2c(c1)[C@]1(C[C@H]1c1ccc3c(C#Cc4ccc(CN5CCOCC5)cc4)n[nH]c3c1)C(=O)N2` (relative stereo) [Example A138, (1R*,2S*)-5′-methoxy-2-(3-((4-(morpholinomethyl)phenyl)ethynyl)-1H-indazol-6-yl)spiro[cyclopropane-1,3′-indolin]-2′-one 2,2,2-trifluoroacetate], the half-maximal inhibitory concentration (IC50) is 100 to 1000 nM.

One may read the IC50 as the concentration that inhibits the measured activity by half.
